Laboratory results published in patent publication US20060189528A1.

Sequences of proteins named here, by UniProt entry; tags and fusion partners are left off. Residues count along the entry.
UniProt P50591, 114-281 limits assumed: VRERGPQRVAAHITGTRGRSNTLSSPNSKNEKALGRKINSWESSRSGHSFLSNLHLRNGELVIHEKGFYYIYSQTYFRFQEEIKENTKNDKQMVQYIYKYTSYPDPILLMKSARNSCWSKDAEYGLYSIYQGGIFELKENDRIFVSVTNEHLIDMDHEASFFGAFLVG

Molecular target: TRAIL (human) (UniProt P50591)
Assay: cell-based or functional assay

proportion of HCT116 cells exhibiting TRAIL-induced apoptosis (TRAIL 0.53 nM) at an OPG dose of 5.6 nM: < 10%
Substance: recombinant human OPG.Fc (R&D Systems) (from UniProt O00300 22-401) (Fc fusion)
